Target: D(2) dopamine receptor (Rattus norvegicus, UniProt P61169)

Amino acid sequences for entries named in this document (tags omitted).
UniProt P61169, whole entry: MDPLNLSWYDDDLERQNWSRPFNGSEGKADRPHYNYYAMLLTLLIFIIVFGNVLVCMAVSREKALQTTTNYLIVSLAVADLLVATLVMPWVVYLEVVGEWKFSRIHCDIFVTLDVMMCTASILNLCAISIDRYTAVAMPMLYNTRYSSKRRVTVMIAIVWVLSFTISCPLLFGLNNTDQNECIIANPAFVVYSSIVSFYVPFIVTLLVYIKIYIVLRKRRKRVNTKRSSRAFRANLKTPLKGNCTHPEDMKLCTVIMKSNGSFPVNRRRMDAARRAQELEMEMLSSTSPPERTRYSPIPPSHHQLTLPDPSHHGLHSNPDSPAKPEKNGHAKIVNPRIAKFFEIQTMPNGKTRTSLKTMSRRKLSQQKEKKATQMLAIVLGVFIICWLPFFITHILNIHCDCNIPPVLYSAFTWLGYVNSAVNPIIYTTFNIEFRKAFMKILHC

Ki: 3.2 µM
SMILES: CN1CCN2c3ccccc3Cc3ccccc3[C@H]2C1 [MIANSERIN (+)]

Source: BindingDB's records for PubMed 2138666 (Department of Veterans Affairs Medical Center, 1990)
